The entries are a selection whose mix differs from that of the whole data set. Active and inactive are the calls of the source. No rule for the calls is given here.
How the values were obtained:
[1] = test system: human cells, Her2 expression AlphaScreen; CTG viability; test: inhibitors of Her2 kinase expression, dose response, cell-based, AlphaScreen, CellTiter-Glo viability (AID 742); details: viability, CellTiter-Glo
[2] = as above; details: human cells, Her2 expression AlphaScreen; CTG viability; at 9.62 µM (top of the series)

## CCc1nc2c(n1)c1c(non1O)c1c2no[n+]1[O-]
[1]
  EC50: > 9.62 µM
[2]
  Her2 inhibition: inactive: 7.44%

From PubChem BioAssay AID742 (SRMLSC, 2007)
